For the experiment, the system named is Bordetella pertussis. In words: microbe, parasite or virus in culture. It counts as cell-based. Here is the method:
Cells were harvested by centrifugation, washed twice with NaCl 0.9% (w/v), and resuspended in fresh medium (de novo minimal CDM; see composition in Table 1) at a theoretical OD650 nm of 0.5, as calculated from the OD650 nm of the culture before harvest. 20 μl of this cell suspension were used to inoculate each well of a 96-well microtiter plate filled with 180 μl of de novo minimal CDM. Only the inner wells of the plate were used for cultures, in order to minimize evaporation, and two controls were included, in which the supplement solution was replaced with water.
The plate was then incubated for 7 days at 35° C. in a Biotek Synergy H1 reader with constant shaking, and growth was automatically monitored every 10 minutes as OD650 nm.
The relative growth yield and growth rate for each supplement was then averaged over the three independent repeats, and the standard deviation was calculated.

The source of these data is patent US20160378909A1, “PROCESS FOR IDENTIFYING CULTURE CONDITIONS FOR A CELL OR ORGANISM” (GLAXOSMITHKLINE BIOLOGICALS SA, priority 2013, published 2016).

Where two headings read alike, the source gives them in different places.

For `O=C([O-])CCC(=O)C(=O)[O-].[Na+].[Na+]` [Disodium 2-ketoglutarate], the activity at 2000 µM (168 h, read-out: Relative yield Average, 2 mM in medium, max OD650 nm relative to water controls) was greater than 105% and the activity at 2000 µM (read-out: Relative growth rate Average, 2 mM in medium, first generation, relative to water controls) lay within 95 to 105%. In addition, the activity at 20000 µM (read-out: Relative growth rate Average, 20 mM in medium, first generation, relative to water controls) lay within 95 to 105%.
